Data from patent US9688669B2, “Oxazolidinones as modulators of mGluR5” (BRISTOL-MYERS SQUIBB COMPANY, priority 2013, dated 2017).

Amino acid sequences for entries named in this document (tags omitted). Chains listed by the source or under a name are the forms on record and can include a tag or linker.
UniProt P41594, with tags, fused parts or gaps limits assumed: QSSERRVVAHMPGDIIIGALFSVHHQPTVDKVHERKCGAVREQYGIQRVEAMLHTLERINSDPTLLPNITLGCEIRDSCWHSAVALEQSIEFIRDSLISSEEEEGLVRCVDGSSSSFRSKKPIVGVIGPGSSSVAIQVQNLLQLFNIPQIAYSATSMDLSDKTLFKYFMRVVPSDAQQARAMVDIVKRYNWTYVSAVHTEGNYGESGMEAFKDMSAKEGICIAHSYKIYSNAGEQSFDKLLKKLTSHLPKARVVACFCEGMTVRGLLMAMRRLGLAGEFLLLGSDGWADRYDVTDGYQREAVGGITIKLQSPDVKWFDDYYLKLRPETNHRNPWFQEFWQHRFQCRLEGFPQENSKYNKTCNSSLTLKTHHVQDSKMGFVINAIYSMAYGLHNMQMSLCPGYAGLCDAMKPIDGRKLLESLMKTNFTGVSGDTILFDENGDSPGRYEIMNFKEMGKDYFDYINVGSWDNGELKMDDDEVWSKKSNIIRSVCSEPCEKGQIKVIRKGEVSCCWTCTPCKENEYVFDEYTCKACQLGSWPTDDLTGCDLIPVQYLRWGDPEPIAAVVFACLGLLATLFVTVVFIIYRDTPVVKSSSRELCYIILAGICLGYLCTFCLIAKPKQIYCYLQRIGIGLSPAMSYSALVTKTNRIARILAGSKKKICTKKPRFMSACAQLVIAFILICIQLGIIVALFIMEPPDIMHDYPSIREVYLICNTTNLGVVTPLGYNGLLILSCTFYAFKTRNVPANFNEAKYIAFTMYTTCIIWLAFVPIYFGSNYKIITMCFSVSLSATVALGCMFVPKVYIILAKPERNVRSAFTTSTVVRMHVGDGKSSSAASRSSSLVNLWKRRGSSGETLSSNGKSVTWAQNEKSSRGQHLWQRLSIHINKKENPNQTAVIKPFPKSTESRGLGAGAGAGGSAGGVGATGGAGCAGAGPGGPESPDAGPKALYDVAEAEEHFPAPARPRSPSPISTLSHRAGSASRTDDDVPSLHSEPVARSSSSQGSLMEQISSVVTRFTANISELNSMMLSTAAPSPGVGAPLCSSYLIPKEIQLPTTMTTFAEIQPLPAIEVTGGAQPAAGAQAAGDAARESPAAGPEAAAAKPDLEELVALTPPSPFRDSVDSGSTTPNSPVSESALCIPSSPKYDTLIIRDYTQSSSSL

Target: human mGluR5A (Homo sapiens (Human), UniProt P41594)
Experiment: mGluR5 FLIPR Assay
Type: cell-based
Settings: read-out: mGluR5 EC50, positive modulator activity, HEK293 (ZF) cells with human mGluR5A and rat GLAST, Ca++ response to ~EC10 l-glutamate

Compound: O=C1N[C@H](c2cncc(C#CCCCCO)c2)[C@@H](c2cccc(F)c2)O1
- EC50: 0.026 µM
